Laboratory results published in ChEMBL document CHEMBL4256943, “Inhibitors of cyp17a1” (2016).

Species: Homo sapiens
Assay: Selectivity factor, ratio of IC50 for human membrane bound C-terminal His4-tagged CYP21A2delta19H mutant to IC50 for human membrane bound C-terminal His4-tagged CYP17A1delta19H mutant

`C[C@]12CC[C@H](O)CC1=C(C#N)C[C@@H]1[C@@H]2CC[C@]2(C)C(c3cccnc3)=CC[C@@H]12` was tested, and the Ratio IC50 was 3.1.
